Values quoted from earlier work in article PMC12795676, “Integrin α5β1 mediates the inhibitory effects of vasoinhibin on angiogenesis and vascular permeability [drawing 1]” (The Journal of Biological Chemistry, 2025).

Tested on: endothelial cells
Settings: cited from earlier work

For volociximab, the “Disruption of endothelial adhesion” value is given as “disrupt endothelial adhesion” and the “Induction of apoptosis (anoikis)” value is given as “induce apoptosis through anoikis”.
